Data taken from patent publication US20120328575A1.

Protein sequences, listed by entry. Tags and fused reporters are not part of them. Residues count along the entry.
UniProt P08174, 35-353: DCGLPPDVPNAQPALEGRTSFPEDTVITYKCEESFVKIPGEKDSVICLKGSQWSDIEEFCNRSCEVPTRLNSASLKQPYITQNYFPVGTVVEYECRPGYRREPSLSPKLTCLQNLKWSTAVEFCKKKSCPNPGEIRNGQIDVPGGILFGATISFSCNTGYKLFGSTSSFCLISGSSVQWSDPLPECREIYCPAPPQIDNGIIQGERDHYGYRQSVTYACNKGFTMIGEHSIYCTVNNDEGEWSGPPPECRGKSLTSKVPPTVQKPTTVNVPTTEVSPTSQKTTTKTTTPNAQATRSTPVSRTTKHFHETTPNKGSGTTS

Target: Decay-accelerating factor (DAF/CD55), surface expressed (human) (UniProt P08174)

CVA21 parental (CVA21 prototype strain Kuykendall double-plaque purified in SkMel28 cells)
fold enhancement of viral binding by anti-SCR3 pretreatment: 8 fold and 4 fold

Several values for one entry are separate records, joined by “and”; a condition that tells them apart may be missing. Identical values can stand only once.
